Source: PubChem BioAssay AID2100 (National Center for Advancing Translational Sciences (NCATS), 2009)
This is a selection; strong and weak results do not stand in their true shares. Inconclusive results are not listed. Activity calls are given as the source filed them. Calls come from the whole dose curve; as a rule, active = well fitted inhibition curve with a large enough effect; inconclusive = small, poorly fitted or top-dose-only effect, or another doubt; inactive = no such curve, though single readings can be large or run the other way.

molecular target: Lysosomal alpha-glucosidase (Homo sapiens) (UniProt P10253); test: qHTS Assay for Inhibitors and Activators of Human alpha-Glucosidase Cleavage of Glycogen; details: recombinant GAA, glycogen substrate, Amplex Red glucose oxidase fluorescence; at 76.4 µM (top of the series);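 note: 0% = full enzyme reaction and -100% = no-enzyme basal signal; the screen sought inhibitors and activators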
From the text: NIH Chemical Genomics Center [NCGC] NIH Molecular Libraries Probe Production Centers Network [MLPCN] MLPCN Grant: R03 MH084841-01 Assay Submitter (PI): Wei Zheng NCGC Assay Overview: Alpha-glucosidase is responsible for the hydrolysis of terminal, non-reducing 1,4-linked alpha-D-glucose residues, which releases alpha-D-glucose. It is a lysosomal hydrolase that is required for the degradation of a small percentage (1-3%) of cellular glycogen in humans. Deficiency of this enzyme results in glycogen-storage disease type II (GSDII), also referred to as Pompe disease, an autosomal recessive disorder. Structurally normal glycogen is accumulated in the lysosomes and cytoplasm in affected patients, primarily in muscle tissues. […]
NCGC Assay Protocol Summary: This is an enzyme assay using glycogen from bovine liver (Sigma catalog #: G0885) as the substrate and recombinant human alpha-glucosidase as the enzyme preparation. Upon hydrolysis of the substrate, the glucose product can be detected using the Amplex Red Glucose Oxidase Assay Kit (Invitrogen catalog #: A22189). The product of this reaction can be read with a fluorescence plate reader with an excitation at 573 nm and an emission at 610 nm. […] The AC50 values were determined from concentration-response data modeled with the standard Hill equation. […] (7) Detect the assay plate in a ViewLux plate reader (PerkinElmer) with Ex=573 nm and Em=610nm. […]

| SMILES | activity change, negative = inhibition |
| --- | --- |
| COc1ccc(OP(C)(=O)Nc2cccc(Br)c2)cc1 (stereo unspecified) | inactive: 1.79% |
